Measured values from publication PMC12640663, “Impact of C18 Epimerization of Indole‐ and Pyrazole‐Fused 18β‐Glycyrrhetinic Acid Derivatives on PTP1B and TCPTP Inhibitory Activity: Synthesis, In Vitro, and In Silico Studies” (Chemmedchem, 2025).

Key:
hPTP1B1–400 [1] = biological target: T1, hPTP1B1–400 (Homo sapiens, UniProt P18031); experiment: PTP1B activity assay, long form hPTP1B1–400 (p‐NPP); type: biochemical; design: hPTP1B1–400 (the long form with an intrinsically disordered C‐terminal regulatory domain); conditions: ± S.D; p‐NPP substrate, 15 min at 37 °C, triplicate
T1 sequence (P18031 1-400): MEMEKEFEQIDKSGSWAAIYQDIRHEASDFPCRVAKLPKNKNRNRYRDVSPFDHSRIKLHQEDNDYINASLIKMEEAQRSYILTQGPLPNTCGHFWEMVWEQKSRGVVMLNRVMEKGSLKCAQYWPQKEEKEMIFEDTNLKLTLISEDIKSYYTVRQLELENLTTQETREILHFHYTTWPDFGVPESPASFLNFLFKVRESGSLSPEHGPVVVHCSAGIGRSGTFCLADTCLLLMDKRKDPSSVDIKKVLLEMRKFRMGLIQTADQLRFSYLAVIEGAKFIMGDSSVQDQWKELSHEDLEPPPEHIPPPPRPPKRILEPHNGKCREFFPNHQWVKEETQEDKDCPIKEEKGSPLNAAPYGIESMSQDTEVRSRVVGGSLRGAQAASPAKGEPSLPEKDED
Method: The inhibitory activity of PTP1B was assessed using two enzyme variants: hPTP1B1–285 (the short form with an N‐terminal catalytic domain) and hPTP1B1–400 (the long form with an intrinsically disordered C‐terminal regulatory domain). […] According to Coronel‐Tovar et al., the disordered region of the C‐terminal domain plays a crucial role in modulating PTP1B enzymatic activity.^[ [30] ^] […] Different concentrations of the compounds were evaluated to determine their IC50 values (Table 1 ).
Recombinant human protein tyrosine phosphatase 1B, consisting of 400 and 285 amino acid residues, was used.^[ [35] ^] […] Aliquots of 0–10 µL of the test compounds (triplicate) were taken and incubated for 15 min at 37 °C with 85 µL of Tris buffer solution (50 mM, pH 6.8) containing PTP1B enzyme and 5 µL of p‐nitrophenyl phosphate substrate (p‐NPP, 10 mM). Absorbance was then measured at a wavelength of 405 nm. The inhibitory activity was determined according to Equation (1). (1) % PTP1B=(A405b/A405c)×100 where % PTP1B: Is the percentage of inhibition. A 405c: Is the corrected absorbance of the blank (A 405initial–A 405final). A 405b: Is the corrected absorbance of the compounds (A 405control–A 405compound).

hPTP1B1–400 [2] = biological target: T1, hPTP1B1–400; experiment: Kinetic studies of PTP1B (hPTP1B1–400); conditions: K i, ± S.D; hPTP1B1–400, p‐NPP 0.1 to 0.5 mM;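 further: enzyme kinetics run across a range of substrate and inhibitor levels, control lacking inhibitor, triplicate runs, parameters derived by fitting Michaelis–Menten style equations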

## CC1(C)[C@@H](O)CC[C@]2(C)[C@H]3C(=O)C=C4[C@H]5C[C@@](C)(C(=O)O)CC[C@]5(C)CC[C@@]4(C)[C@]3(C)CC[C@@H]12 [18α‐GA, 18α‐glycyrrhetinic acid]
hPTP1B1–400 [1]
  IC50: 2870 ± 210 nM
hPTP1B1–400 [2]
  Ki: 620 ± 190 nM

## CC1(C)[C@@H](O)CC[C@]2(C)[C@H]3C(=O)C=C4[C@@H]5C[C@@](C)(C(=O)O)CC[C@]5(C)CC[C@@]4(C)[C@]3(C)CC[C@@H]12 [18β‐GA, 18β‐glycyrrhetinic acid]
hPTP1B1–400 [1]
  IC50: 15400 ± 950 nM
hPTP1B1–400 [2]
  Ki: 1630 ± 500 nM
